# Measured values taken from patent US20260022153A1 (AMIDEBIO, LLC, priority 2017, published 2026).
# Target: IGF1 receptor (IGF1R) (Homo sapiens, UniProt P08069)
# Experiment: Binding affinity of insulin analogs to the IGF1 receptor (IGF1R)
# Details: in the absence of glucose
# Method: SEQ ID NO: 2. SEQ ID NO: 3, SEQ ID NO: 4. […] SEQ ID NO: 6, SEQ ID NO: 5 and SEQ ID NO: 7 for IR and IGF1-R in the absence of glucose. […] Based on these predictions, the mutated insulin analogs are made. Normal mode analysis is then performed for each mutant insulin analog to test for whether the mutated insulin analog is a glucose-responsive insulin analog.
substance,measurement,value
insulin growth factor 1 [IGF1],Kd,0.04 nM
